Patent US20110160081A1, “FUNCTIONAL COMPLEMENTATION ASSAY FOR DEFINED GPCR OLIGOMERS” (priority 2008, published 2011)

By UniProt entry, the sequences of proteins in these tests, tags left out. Where a name states a change or a piece, a line headed by the entry shows the natural chain unless it says otherwise. Residues count along the entry.
UniProt P35346, 1-347: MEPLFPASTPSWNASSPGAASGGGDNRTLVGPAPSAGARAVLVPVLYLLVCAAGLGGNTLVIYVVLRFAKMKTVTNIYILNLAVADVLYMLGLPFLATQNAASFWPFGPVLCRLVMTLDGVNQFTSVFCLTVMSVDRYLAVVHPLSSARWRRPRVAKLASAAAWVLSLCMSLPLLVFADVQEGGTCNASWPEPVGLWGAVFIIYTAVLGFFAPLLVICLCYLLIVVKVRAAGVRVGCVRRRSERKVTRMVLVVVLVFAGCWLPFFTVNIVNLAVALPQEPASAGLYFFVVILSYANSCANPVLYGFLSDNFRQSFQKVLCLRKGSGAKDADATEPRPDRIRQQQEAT
UniProt P61278: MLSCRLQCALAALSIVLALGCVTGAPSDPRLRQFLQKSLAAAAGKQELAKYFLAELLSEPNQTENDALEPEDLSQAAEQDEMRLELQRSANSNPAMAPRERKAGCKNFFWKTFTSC

Target: somatostatin receptor 5 (SSTR5) (human) (UniProt P35346)
Assay: cell-based or functional assay

potency of somatostatin with sulpiride relative to quinpirole, aequorin luminescence, SSTR5 coexpressed with D2R-Gqi5: 6 fold
Substance: somatostatin (SST) (from UniProt P61278 103-116) (peptide)
